These are literature values, as cited in paper PMC7849011, “Defining the Antimalarial Activity of Cipargamin in Healthy Volunteers Experimentally Infected with Blood-Stage Plasmodium falciparum” (Antimicrobial Agents and Chemotherapy, 2021).

The subject of the series is P. falciparum. The conditions noted are these: 800 mg single dose, IBSM; cited from earlier work.

ferroquine: the parasite clearance half-life is 6.5 h.
